In patent publication US9410137B2, “Compositions and methods for modulating hemostasis” (The Children's Hospital of Philadelphia, priority 2005, dated 2016):
Where two headings read alike, the source gives them in different places.

Chains of the proteins cited; added tags and fusions are not shown. Residues count along the entry.
UniProt P01008, 33-464, species assumed: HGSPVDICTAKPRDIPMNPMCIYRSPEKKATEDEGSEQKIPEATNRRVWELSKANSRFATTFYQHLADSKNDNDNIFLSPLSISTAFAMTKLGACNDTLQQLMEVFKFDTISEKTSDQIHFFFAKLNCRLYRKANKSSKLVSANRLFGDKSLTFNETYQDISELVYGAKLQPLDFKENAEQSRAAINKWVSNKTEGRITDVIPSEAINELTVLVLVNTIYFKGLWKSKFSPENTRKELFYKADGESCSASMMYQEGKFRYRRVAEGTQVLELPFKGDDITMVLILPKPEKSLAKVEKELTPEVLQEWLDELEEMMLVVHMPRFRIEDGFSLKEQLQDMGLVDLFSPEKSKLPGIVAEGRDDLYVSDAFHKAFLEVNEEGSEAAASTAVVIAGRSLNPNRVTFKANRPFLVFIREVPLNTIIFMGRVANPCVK

Experiments:
[1] = Kinetic constants for chromogenic substrate cleavage (free factor Xa or prothrombinase); format: biochemical; conditions: for Km: read-out: Km ± SD
Text: (§1) Enzyme concentrations will be determined by active-site titration with ρ-nitrophenyl ρ-guanidinobenzoate (IIa) or fluorescein mono-ρ-guanidinobenzoate (FXa) (26, 27). FXa chromogenic substrate activity, in the presence or absence of various inhibitors, will be measured from initial rates of hydrolysis of Spectrozyme FXa, S-2222, or S-2765 as previously described (14). Kinetic parameters will be determined by least-squares fitting of the initial rate data to appropriate equations.

Antithrombin III = Antithrombin III (Homo sapiens, UniProt P01008); assay: Inhibition of FXa and prothrombinase by Antithrombin III; format: biochemical
Text: as §1

hemophilia B plasma = assay: aPTT clotting time of hemophilia B plasma spiked with FXa; format: biochemical; conditions: 0.1 nM in hemophilia B plasma
Experimental: Based on the observation that the zymogen-like FXa derivatives have poor reactivity with active-site directed probes and inhibitors in the absence of FVa, but apparently near normal activity when the variants are assembled in prothrombinase, we next evaluated the activity of FXaI16L (FXaI235L) in a plasma environment. Hemophilic A (data not shown) or B plasma was spiked with wild-type FXa to correct the clotting time (aPTT) of these plasmas; 0.1 nM wtFXa gave a clotting time of ˜32 sec. […] Next we monitored the half-life of wild-type FXa and FXaI16L (FXaI235L) in hemophilia B plasma. The proteins were added to HB plasma and at different time points, an aliquot of the mixture was withdrawn and assayed in an aPTT-based assay. […] Similar results were found with hemophilia A plasma.

[2] = test system: hemophilia B mice (Balb c); assay: Tail-clip assay, blood loss in hemophilia B mice; format: in vivo; conditions: 450 μg/kg; 10-min period after tail sectioning
Experimental: FIG. 8. Hemostatic assessment following tail-clip assay in hemophilia B mice. Blood loss is measured by the hemoglobin content of the saline solution by A525 post-injury. The number of mice (Balb c) are; wild-type (n=7); HB-PBS (n=6); and HB-FXaI16L (n=7).
To further test the effectiveness of FXaI16L (FXaI235L) in vivo, we examined whether this molecule could correct the bleeding time of hemophilia B mice following injury to the tail (Schlachterman, et. al., 2005, J. Thromb. Haemost., 3, 2730-2737). Blood loss was measured during a 10-min period after sectioning the distal part of the tail. In this type of assay, blood loss is minimal in normal wild-type Balb-c mice (n=7) and quite substantial in PBS injected (n=6) hemophilia B mice (Balb c) following the tail injury (FIG. 8).

[3] = Prothrombinase, 5.0 nM FXa, 30 nM factor Va, 50 μM PCPS

rFXa^I16L: factor X/Xa variant, Ile16 (position 235 in SEQ ID NO: 1) replaced by Leu
kcat ± SD [1, 3]: 32.5 ± 3.1 s⁻¹
Km [1, 3]: 296 ± 54 µM
Km for peptidyl substrates ([1]; assembled into prothrombinase): almost completely restored
kcat reduced ([1]; assembled into prothrombinase, compared to wild-type FXa): 3 fold
rate of catalysis (kcat) reduced ([1]; free FXa, compared to wild-type FXa (plasma-derived and recombinant)): 3 fold
kcat ± SD ([1]; free Factor Xa): 57.3 ± 3.1 s⁻¹
Km ([1]; free Factor Xa, 2.0 nM wild-type or 6.0 nM mutant): 1150 ± 244 µM
k2 ± SD Antithrombin III (Antithrombin III; Prothrombinase): 0.09 ± 0.003 M^−1 s^−1 × 10^3
k2 ± SD Antithrombin III (Antithrombin III; free Factor Xa): 0.06 ± 0.001 M^−1 s^−1 × 10^3
clotting time (aPTT) (hemophilia B plasma): ~42 s
total blood loss following tail injury [2]: significantly reduced the total amount of blood loss
